This note sets out measurements from patent US7777042B2, “N-sulfonylpipecolic acid derivative FKBP binding composition and pharmaceutical use thereof” (Aventis Pharmaceuticals Inc., priority 2004, dated 2010).

The subject of one experiment is FKBP-mediated cellular function in Jurkat cells. Briefly: Jurkat IFNγ-Luc reporter: Jurkat Shift (prevention of the action of FK506). Particulars: compound at 1 μM.
rapamycine [reference compound]: the “ratio value (EC50 of FK506 with / without compound)” value is on record as 15-30.

Staying with this experiment, now noted: ratio of EC50 of FK506 in the presence of 10M test compound to EC50 in its absence.
`COC[C@H](C)NC(=O)[C@H](Cc1ccc(OCCCF)cc1)NC(=O)[C@@H]1CCCCN1S(=O)(=O)c1cccc(F)c1`: the “Jurkat Shift” value amounted to 7.1.
For the molecule `Cc1ccc(C[C@H](NC(=O)[C@@H]2CCCCN2S(=O)(=O)c2cccc(C(F)(F)F)c2)C(=O)NCC2CCCCC2)cc1`, the “Jurkat Shift” value was determined as 2.8.
The same measure, in the same setting: the same measure for `CNC(=O)[C@H](Cc1ccc(OC(C)C)cc1)NC(=O)[C@@H]1CCCCN1S(=O)(=O)c1cccc(C(F)(F)F)c1`: 3.4; for `Cc1ccc(C[C@H](NC(=O)[C@@H]2CCCCN2S(=O)(=O)c2cccc(C(F)(F)F)c2)C(=O)NCCCCN)cc1` [drawing 64]: 4.5.
Turning to `C=CCOc1ccc(C[C@H](NC(=O)[C@@H]2CCCCN2S(=O)(=O)c2ccccc2)C(=O)NC2CCCCC2)cc1` [drawing 65], the “Jurkat Shift” value is reported as 13.4.
Turning to `Cc1ccc(C[C@H](NC(=O)[C@@H]2CCCCN2S(=O)(=O)c2ccccc2)C(=O)NC2CCCCC2)cc1` [drawing 66], the “Jurkat Shift” value was 10.4.
As to `Cc1ccc(C[C@H](NC(=O)[C@@H]2CCCCN2S(=O)(=O)c2cccc(C(F)(F)F)c2)C(=O)NC2CCCCC2)cc1` [drawing 67], the “Jurkat Shift” value stood at 69.5.
For `COc1ccc(C[C@H](NC(=O)[C@@H]2CCCCN2S(=O)(=O)c2cccc(C(F)(F)F)c2)C(=O)Nc2ccc(N3CCOCC3)cc2)cc1` [drawing 68], the “Jurkat Shift” value is listed as 83.1.
For the molecule `CC(O)c1ccc(C[C@H](NC(=O)[C@@H]2CCCCN2S(=O)(=O)c2cccc(C(F)(F)F)c2)C(=O)Nc2ccc(N3CCOCC3)cc2)cc1` (some centres unmarked) [drawing 69], the “Jurkat Shift” value worked out at 45.7.
As to `CC(=O)c1ccc(C[C@H](NC(=O)[C@@H]2CCCCN2S(=O)(=O)c2cccc(C(F)(F)F)c2)C(=O)Nc2ccc(N3CCOCC3)cc2)cc1` [drawing 70], the “Jurkat Shift” value amounted to 12.3.
Turning to `CC(C)Oc1ccc(C[C@H](NC(=O)[C@@H]2CCCCN2S(=O)(=O)c2cccc(C(F)(F)F)c2)C(=O)NC2CCOCC2)cc1` [drawing 71], the “Jurkat Shift” value is recorded as 7.5.
On the same count and under the same terms, the same measure for `CC(C)Oc1ccc(C[C@H](NC(=O)[C@@H]2CCCCN2S(=O)(=O)c2cccc(F)c2)C(=O)NC2CC(C)(C)NC(C)(C)C2)cc1` [drawing 72]: 69.4; for `COc1ccc(C[C@H](NC(=O)[C@@H]2CCCCN2S(=O)(=O)c2cccc(C(F)(F)F)c2)C(=O)NC2CCOCC2)cc1` [drawing 75]: 14.4; for `COc1ccc(C[C@H](NC(=O)[C@@H]2CCCCN2S(=O)(=O)c2ccccc2)C(=O)NCCC(C)(C)C)cc1` [drawing 77]: 6.5.
Take `CC1(C)CC(NC(=O)[C@H](Cc2ccc(OCCCF)cc2)NC(=O)[C@@H]2CCCCN2S(=O)(=O)c2cccc(F)c2)CC(C)(C)N1` [drawing 78]: the “Jurkat Shift” value stood at 34.6.
The same measure, in the same setting: in the case of `COc1ccc(C[C@H](NC(=O)[C@@H]2CCCCN2S(=O)(=O)c2cccc(C(F)(F)F)c2)C(=O)NC2CCOCC2)cc1OC` [drawing 79] it was 31.4.
